## Binding of CDR-mutated scFvs to a peptide of the spike HR2 region

From the AlphaSeq antibody data of Engelhart et al. 2022 (doi:10.1038/s41597-022-01779-4), copy in the FLAb collection.

Antigen: PDVDLGDISGINAS, a 14-residue peptide of the SARS-CoV-2 spike HR2 region.

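In library AAYL52, one, two or three CDR residues were substituted; doubles and triples were drawn at random. AlphaSeq pools MATa yeast showing the antibodies with MATalpha yeast showing the peptide. After mating in shaken culture at 30 °C for 16 h, diploids were selected and their barcode pairs sequenced. The ratio of observed to expected reads was calibrated, replicate by replicate, on BCL2-family standards whose Kd was known from biolayer interferometry. The assay was run in three technical replicates.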

The variants keep the heavy chain, the linker and the frameworks of Ab-95 (scFv order VH, three GGGGS repeats, VL).
VH: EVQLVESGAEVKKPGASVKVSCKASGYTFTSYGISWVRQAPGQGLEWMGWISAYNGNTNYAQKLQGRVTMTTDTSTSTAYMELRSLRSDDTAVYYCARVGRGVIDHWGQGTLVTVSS
VL: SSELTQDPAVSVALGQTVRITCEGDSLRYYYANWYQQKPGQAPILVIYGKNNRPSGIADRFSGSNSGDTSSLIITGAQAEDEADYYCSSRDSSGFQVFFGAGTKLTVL

Changes read parent residue, position, new residue, counted from the first residue of the VL shown.
Values are log10 of the apparent Kd in nM; lower means stronger binding.
"nd" marks a missing value. The strain was present, yet no cells mated with the target were sequenced in that replicate, which points to weak or no binding.
Background: pairings of library AAYL52 with three empty control strains gave a value in 28% of cases (median 3.91, 5th percentile 2.90). Values in that range, when seen in few replicates, are hard to tell from nonspecific mating.

changes	log10 Kd (nM) by replicate
L27N/Y30V/K50H	3.60 3.83 nd
R53E/P54N/V97C	nd 4.75 nd
G49K/S55W/S88W	3.76 3.83 4.16
Y31L/F95H/Q96H	2.88 2.99 2.56
G24M/D91K/V97Y	4.59 nd 4.52
D25N/G49M/K50T	nd nd nd
Y31N/V97R/F98D	3.44 3.22 nd
K50F/R90I/S93V	4.10 3.36 3.99
Y30T/K50Y/F95N	2.85 2.49 2.33
N33R/N52K/S88T	nd nd nd
S88F/R90I	2.68 2.85 2.12
Y29W/N52H/Q96I	4.43 3.65 nd
G24E/R90Q	nd nd nd
D25E/S88A/S89T	2.60 2.29 2.38
S26Y/Y31K/S92A	nd nd nd

Continued, with the values leading:

log10 Kd (nM) by replicate	changes
3.60 3.47 3.41	D25N/S26H/A32L
3.30 3.12 3.17	G24C/Y30D/S92G
nd 4.10 2.46	D25H/Y30K/N51R
3.63 4.70 4.37	L27G/R28Y/R53W
5.23 nd 4.46	G24Y/Q96V/F98N
2.99 3.43 3.09	E23C/S93K
4.79 nd nd	R53Y/S55G/D91H
4.05 3.07 4.25	G24H/G49Q
4.00 3.50 2.97	S55M/S93E/V97L
4.59 4.23 nd	R53F/S55Q/G94I
5.63 nd 3.91	A32E/R90E/Q96K
nd 4.79 3.76	E23S/N33M/V97M
3.00 3.06 2.56	A32T/S93G/G94W
nd nd nd	R90H/D91I/F98K
4.18 4.28 nd	N51L/R90F/S93L

From the list, the first 4 with no signal in any replicate:

| changes | log10 Kd (nM) by replicate |
|---|---|
| D25N/G49M/K50T | nd nd nd |
| N33R/N52K/S88T | nd nd nd |
| G24E/R90Q | nd nd nd |
| S26Y/Y31K/S92A | nd nd nd |